Laboratory results taken from patent US20110218339A1, “Crystalline polymorph of biopterin and production method thereof” (KANEKA CORPORATION, priority 2010, published 2011).

Assays:
[1] = storage stability of the crystal form (re-analysis by powder X-ray diffraction); format: physicochemical; details: for stability of the crystalline solid / change into other crystalline solids: ambient temperature and atmosphere, long-term storage under general conditions (avoiding direct sunlight, high temperatures and humidities); for change into a different crystal form after storage: stored at ambient temperature and pressure for 14 days
Description: A solution was prepared by dissolving the crude biopterin (107.0 mg, 78.1% purity) obtained in Production Example 1 in a 0.1 N aqueous solution of sodium hydroxide (20 mL) and then adding ethanol (10 mL) thereto. To the stirred solution, 0.1 N aqueous acetic acid (20 mL) was added dropwise over a period of approximately 10 minutes. The precipitated crystals were separated by filtration and dried in vacuo overnight at 40° C., to obtain 81.1 mg of biopterin crystalline solid A having a purity of 91.8%.
Hexane (20 mL) was added to the crude biopterin (103.9 mg), which was also used in Example 1, and the mixture was stirred for 6 hours so as to obtain a suspension. The crystals were separated by filtration and dried overnight at ambient temperature and pressure, to obtain 98.2 mg of biopterin crystalline solid E having a purity of 84.3%. The present crystalline solid was in the form of particles and had good filtering properties.

[2] = digital microscope observation of particle shape and diameter; format: physicochemical; details: digital microscope (Keyence VHX-200)
Description: A solution was prepared by dissolving the crude biopterin (110.9 mg), which was also used in Example 1, in a 0.1 N aqueous solution of sodium hydroxide (20 mL). To the stirred solution, 0.1 N aqueous hydrochloric acid (20 mL) was added dropwise over a period of approximately 10 minutes. The precipitated crystals were separated by filtration and dried in vacuo overnight at 40° C., to obtain 83.9 mg of biopterin crystalline solid B having a purity of 91.1%.

biopterin [Example 1]
stability of the crystalline solid / change into other crystalline solids ([1]; listed as crystalline solid A): stable | change into a different crystal form after storage [1]: no signs of changing into a different crystal form

biopterin [Example 2]
change into a different crystal form after storage [1]: no signs of changing into a different crystal form | diameter of spherical particles [2]: approximately 25 μm

biopterin [Example 3]
diameter of spherical particles [2]: approximately 20 μm

biopterin [Example 4]
diameter of spherical particles [2]: approximately 10 μm

biopterin [Example 9]
stability of the crystalline solid / change into other crystalline solids ([1]; listed as crystalline solid D): stable | change into a different crystal form after storage [1]: no signs of changing into a different crystal form

biopterin [Example 10]
stability of the crystalline solid / change into other crystalline solids ([1]; listed as crystalline solid E): relatively unstable | change into a different crystal form after storage [1]: changed to that of crystalline solid D

biopterin [crystalline solid B]
stability of the crystalline solid / change into other crystalline solids [1]: stable
